Assay results reported in ChEMBL document CHEMBL1123344, “N-Substituted sulfonamide carbonic anhydrase inhibitors with topical effects on intraocular pressure” (J Med Chem, 1986).

Molecular target: Carbonic anhydrase

Which Ki does the source give for `NS(=O)(=O)c1ccc([N+](=O)[O-])cc1` here?
Its Ki is 200 pM.
